# Experimental data from article PMC8565515, “Dasabuvir Inhibits Human Norovirus Infection in Human Intestinal Enteroids” (mSphere, 2021).
# Test system: J2 HIE monolayers
# Experiment: Cytotoxicity by LDH assay in J2 HIE monolayers
# Settings: compound 10 μM, n = 1, LDH assay, J2 HIE monolayers infected with GII.4 HuNoV, 24 hpi, normalized to DMSO control
substance,measurement,value
Maraviroc,(%) Cytotoxicity,-1.98%
